## AlphaSeq binding of Ab-14 heavy chain variants to a spike HR2 peptide

Target peptide (SARS-CoV-2 spike, HR2 region): PDVDLGDISGINAS

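The starting antibody came from a phage panning campaign against this peptide. These sequences belong to a second round, designed from the earlier measurements on random variants of the parent. Their group label is 14H_GP_Gen (GP: Gaussian process model; Gen: genetic algorithm; a sequence that several methods proposed may carry one label only). In AlphaSeq, yeast of one mating type display the scFv and yeast of the other type display the target. Mating (16 h, 30 °C) was followed by selection of diploids and sequencing of their barcodes. Each replicate has its own calibration line, from reference interactions of the BCL2 family. Mating was done six times.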

Ab-14 is the parent antibody, in scFv form: VH, then three GGGGS repeats, then VL. The light chain is unchanged in all variants.
VH: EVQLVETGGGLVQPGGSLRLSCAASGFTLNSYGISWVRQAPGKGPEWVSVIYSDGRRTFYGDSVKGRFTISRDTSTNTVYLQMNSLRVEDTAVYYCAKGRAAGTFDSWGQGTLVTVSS
VL: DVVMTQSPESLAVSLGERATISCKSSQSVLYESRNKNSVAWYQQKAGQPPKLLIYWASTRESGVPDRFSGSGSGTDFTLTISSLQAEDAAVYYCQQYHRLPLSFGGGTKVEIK

Substitutions are numbered in sequence along the VH above, starting at 1 (not Kabat).
The read-out is the apparent dissociation constant on a log10 scale (nM): the lower, the stronger.
"n.d." means that the variant was in the library but no mating with the target was seen in that replicate; the authors take this as a sign of poor binding, and no number exists.
Values of this round are not directly comparable with the first-round values of the same sequences.

changes	log10 Kd (nM) by replicate	control signals
T28S+S53A+R100K+S107G	-0.12 / -1.51 / -1.28 / n.d. / -0.74 / -1.12	0/18
T28S+G61K+S63K+A101T	1.44 / 0.88 / 1.77 / 1.40 / 0.98 / 1.77	1/18 (1.77)
T28N+G61A+S63M+R100N	1.80 / n.d. / n.d. / n.d. / n.d. / n.d.	0/18
G26M+T28D+R100Q	n.d. / n.d. / n.d. / n.d. / n.d. / n.d.	0/18
G26K+T28S+R100K+A101T	n.d. / n.d. / n.d. / 2.46 / n.d. / 1.94	0/18
T28E+G61A+S63N+R100Q+A101T	n.d. / 2.78 / 1.77 / 1.76 / 1.08 / 2.67	0/18
T28E+R100M+A101N	1.19 / 0.22 / 0.52 / 0.70 / 0.45 / 0.97	0/18
T28Q+G61V+R100N	2.60 / 1.72 / 1.69 / 2.47 / 2.48 / 2.00	0/18
T28D+G61H+S63E+A101T	0.04 / 0.12 / -0.33 / -0.33 / -0.09 / -0.10	1/18 (2.25)
T28D+G61A+S63D+R100Q	0.85 / 0.89 / 0.48 / 2.01 / 0.84 / 0.29	0/18
T28D+G61I+R100K+S107T	0.93 / 1.87 / 0.62 / 3.64 / n.d. / 1.79	0/18
T28E+S31E+F59Y+A101T	n.d. / -0.98 / -1.29 / n.d. / n.d. / n.d.	0/18
G26M+T28D+A101N	1.25 / 1.44 / 0.89 / 0.80 / 1.59 / 1.05	0/18
T28Q+S31E+R100Q+S107V	1.48 / 0.47 / 1.42 / 1.08 / 1.18 / 0.85	0/18
T28D+R100H+S107V	0.44 / -0.03 / 0.28 / 0.25 / 0.10 / 0.19	0/18
T28E+G61S+R100K+A101T+S107T	0.53 / 0.12 / 0.20 / -0.14 / 0.05 / 0.42	0/18
T28E+S31N+A101Q	1.03 / 0.61 / 0.08 / 1.14 / 1.03 / 0.00	0/18
G26M+T28D+R100Q+A101T	1.53 / 0.27 / 1.06 / 0.80 / 1.20 / 0.36	1/18 (1.82)
T28E+R100Q+A101I	n.d. / n.d. / n.d. / n.d. / n.d. / n.d.	0/18
T28E+S53A+R100K+S107Q	0.37 / 0.53 / 0.12 / 0.26 / -0.03 / 0.25	0/18
T28N+G61I+A101E+S107T	0.66 / 0.37 / 0.32 / 0.76 / 0.73 / 0.48	1/18 (2.85)
T28S+S53A+R100Q+S107M	0.00 / -0.24 / -0.43 / -0.37 / -0.40 / -0.07	0/18
T28E+S31E+A101T+S107G	-0.31 / 0.61 / -0.50 / -0.60 / -0.89 / -0.11	0/18
T28D+R100K+S107E	1.02 / 0.38 / 1.22 / -0.22 / -0.19 / 0.82	0/18
T28K+S31E+R100K+A101T	0.58 / 0.35 / 0.31 / -0.27 / -0.04 / -0.08	1/18 (2.53)
T28N+S63K+A101E	0.41 / 0.17 / 0.27 / -0.01 / -0.04 / 0.32	0/18
T28S+S31E+D62W+S63Q+A101T	n.d. / n.d. / n.d. / n.d. / n.d. / n.d.	0/18
T28N+G61A+S63K+R100N	0.37 / -0.05 / -0.33 / -0.30 / -0.03 / 0.23	0/18
T28W+S31E+G61S+R100Q	0.24 / 0.45 / 0.67 / 0.22 / -0.24 / 0.15	2/18 (1.65)
G26K+T28D+F59A	0.81 / 0.90 / 0.28 / -0.17 / 0.92 / 1.95	0/18
T28Q+S31E+R100H+S107L	0.62 / 0.19 / 0.32 / 0.12 / 0.13 / 0.16	0/18
T28D+R56K+S107V	0.03 / -0.17 / -0.16 / 0.21 / 0.66 / 0.59	0/18
T28E+S63E+A101T	1.53 / 1.50 / 0.53 / 1.12 / 1.07 / 1.14	1/18 (2.81)
T28Q+S31E+A101H+S107T	2.11 / -0.30 / 0.70 / n.d. / 0.32 / 1.64	0/18
T28D+T58S+A101E	0.06 / 0.03 / -0.31 / 0.16 / -0.15 / -0.31	0/18
T28D+F59A+S63M+A101Q	-0.16 / -0.34 / -0.37 / 0.19 / -0.20 / 0.03	1/18 (1.11)
G26K+T28E+R100K+A101T	n.d. / n.d. / n.d. / n.d. / n.d. / n.d.	0/18
T28E+R56K+G61V+A101T	1.14 / 1.50 / 2.54 / 1.46 / 1.71 / 1.23	1/18 (2.17)
G26K+T28S+R56K+G61A+A101T	1.23 / 1.08 / 0.64 / 0.54 / 0.55 / 0.60	0/18
G26Y+T28D+G61A+R100N	1.56 / 1.03 / 1.47 / 1.20 / 1.75 / 1.34	0/18
T28K+S31E+A101T+S107T	-0.22 / -0.45 / -0.16 / -0.31 / -0.51 / -0.09	0/18
T28D+S63N+A101E	0.95 / 0.37 / 0.17 / 0.07 / 0.58 / 0.78	0/18
T28W+F59A+R100Q	n.d. / 1.53 / n.d. / 0.85 / n.d. / n.d.	0/18
T28D+A101T+D106E	0.44 / -0.03 / 0.48 / 0.16 / 0.46 / 0.60	1/18 (2.04)
T28H+G61V+R100K+A101T	n.d. / 2.93 / n.d. / n.d. / n.d. / n.d.	0/18
T28N+R56K+G61A+A101Q	0.19 / 0.05 / 0.13 / -0.07 / 0.04 / 0.20	0/18
T28Y+S31E+A101Q	n.d. / n.d. / n.d. / n.d. / -0.47 / n.d.	0/18

Extract of 5 entries:

changes	log10 Kd (nM) by replicate	control signals
T28D+R56K+S107V	0.03 / -0.17 / -0.16 / 0.21 / 0.66 / 0.59	0/18
T28W+S31E+G61S+R100Q	0.24 / 0.45 / 0.67 / 0.22 / -0.24 / 0.15	2/18 (1.65)
T28E+R100Q+A101I	n.d. / n.d. / n.d. / n.d. / n.d. / n.d.	0/18
T28D+G61I+R100K+S107T	0.93 / 1.87 / 0.62 / 3.64 / n.d. / 1.79	0/18
T28E+S53A+R100K+S107Q	0.37 / 0.53 / 0.12 / 0.26 / -0.03 / 0.25	0/18

The parent sequence was in this pool as ten entries: three were never detected, three once, and four in most replicates, with averages from 0.34 to 2.37.
The authors averaged sequences with at least three values out of six and counted those with two or fewer as poor binders.
Nonspecific signal, from three strains lacking the peptide, appeared in 1% of pairings of all heavy chain designs, centred on 2.08 (5% of these signals below 0.84); values are not corrected for it. Also given: how often the same scFv was detected with the empty control strains, with their mean in brackets.

Values reported by Li et al. 2023, doi:10.1038/s41467-023-39022-2 (FLAb copy).